In PubChem BioAssay AID588511 (Johns Hopkins Ion Channel Center, 2011):
Only a part is listed here, and it is no random draw. The source made the active and inactive calls.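 Rule for the calls: active = ratio plate-corrected score three or more library SD toward inhibition, starting fluorescence score within five deviations; inactive = the rest.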

By UniProt entry, the sequences of proteins in these tests, tags left out. Where a name states a change or a piece, a line headed by the entry shows the natural chain unless it says otherwise.
UniProt Q8BHY3: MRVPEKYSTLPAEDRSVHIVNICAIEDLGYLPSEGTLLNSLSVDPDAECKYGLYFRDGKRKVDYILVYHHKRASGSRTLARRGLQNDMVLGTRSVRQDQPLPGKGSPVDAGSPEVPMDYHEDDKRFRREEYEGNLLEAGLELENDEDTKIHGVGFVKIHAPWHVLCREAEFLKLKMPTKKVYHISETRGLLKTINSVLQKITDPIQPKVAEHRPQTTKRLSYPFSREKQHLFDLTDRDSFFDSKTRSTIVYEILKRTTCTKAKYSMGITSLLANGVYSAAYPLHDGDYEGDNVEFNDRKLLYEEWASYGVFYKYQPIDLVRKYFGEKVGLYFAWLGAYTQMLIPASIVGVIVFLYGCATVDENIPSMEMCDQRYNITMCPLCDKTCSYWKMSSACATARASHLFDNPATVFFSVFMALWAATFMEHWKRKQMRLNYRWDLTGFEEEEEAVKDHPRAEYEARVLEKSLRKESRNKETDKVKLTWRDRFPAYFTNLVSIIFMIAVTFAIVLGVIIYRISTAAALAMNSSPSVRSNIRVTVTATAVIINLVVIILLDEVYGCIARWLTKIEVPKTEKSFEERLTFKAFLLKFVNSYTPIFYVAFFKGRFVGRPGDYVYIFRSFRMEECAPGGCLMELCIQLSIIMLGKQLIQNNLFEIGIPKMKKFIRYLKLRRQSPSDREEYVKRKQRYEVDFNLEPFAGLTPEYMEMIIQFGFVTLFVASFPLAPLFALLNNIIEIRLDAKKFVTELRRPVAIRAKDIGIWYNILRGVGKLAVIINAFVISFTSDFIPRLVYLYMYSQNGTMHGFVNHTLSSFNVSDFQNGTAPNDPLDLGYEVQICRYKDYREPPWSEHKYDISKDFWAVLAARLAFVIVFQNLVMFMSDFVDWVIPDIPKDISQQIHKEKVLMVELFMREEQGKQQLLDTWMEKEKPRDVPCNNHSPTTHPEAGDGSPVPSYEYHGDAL

These compounds were tested against Anoctamin-1 (Mus musculus) (UniProt Q8BHY3) (assay: blockers of mouse ANO1 Ca-activated Cl channel – cell-based, HTS, primary screen (AID 588511)). Conditions: HEK293 TMEM16A/YFP iodide influx fluorescence, ionomycin; at 10 µM.

Compound	B-score
CCc1nc2c(n1)c1c(non1O)c1c2no[n+]1[O-]	active: 25
O=[N+]([O-])c1ccc(O)c(/C=N/Nc2ccc([N+](=O)[O-])cc2[N+](=O)[O-])c1	active: 100
